From patent US20240246970A1, “SUBSTITUTED HETERO-BICYCLOCOMPOUNDS AS SUBTYPE SELECTIVE NICOTINIC ACETYLCHOLINE RECEPTOR INHIBITORS” (THE BOARD OF TRUSTEES OF THE UNIVERSITY OF ILLINOIS, priority 2021, published 2024) come the findings set out here.

Sequences of proteins named here, by UniProt entry; tags and fusion partners are left off. Residues count along the entry.
UniProt P04757, 26-499 limits assumed: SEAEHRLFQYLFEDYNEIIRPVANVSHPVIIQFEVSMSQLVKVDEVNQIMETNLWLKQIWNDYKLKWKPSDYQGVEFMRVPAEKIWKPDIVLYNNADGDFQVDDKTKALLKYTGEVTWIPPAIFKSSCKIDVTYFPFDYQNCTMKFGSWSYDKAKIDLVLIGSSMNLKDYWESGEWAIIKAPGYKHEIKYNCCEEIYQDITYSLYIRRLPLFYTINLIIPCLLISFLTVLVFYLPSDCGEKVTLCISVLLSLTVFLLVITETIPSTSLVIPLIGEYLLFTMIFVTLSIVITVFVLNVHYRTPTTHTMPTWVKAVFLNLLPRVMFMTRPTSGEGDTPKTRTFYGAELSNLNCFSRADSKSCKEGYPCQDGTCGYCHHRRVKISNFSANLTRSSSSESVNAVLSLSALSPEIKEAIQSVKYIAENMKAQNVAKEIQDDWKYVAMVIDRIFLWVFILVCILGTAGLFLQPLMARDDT
UniProt P12392, 21-495 limits assumed: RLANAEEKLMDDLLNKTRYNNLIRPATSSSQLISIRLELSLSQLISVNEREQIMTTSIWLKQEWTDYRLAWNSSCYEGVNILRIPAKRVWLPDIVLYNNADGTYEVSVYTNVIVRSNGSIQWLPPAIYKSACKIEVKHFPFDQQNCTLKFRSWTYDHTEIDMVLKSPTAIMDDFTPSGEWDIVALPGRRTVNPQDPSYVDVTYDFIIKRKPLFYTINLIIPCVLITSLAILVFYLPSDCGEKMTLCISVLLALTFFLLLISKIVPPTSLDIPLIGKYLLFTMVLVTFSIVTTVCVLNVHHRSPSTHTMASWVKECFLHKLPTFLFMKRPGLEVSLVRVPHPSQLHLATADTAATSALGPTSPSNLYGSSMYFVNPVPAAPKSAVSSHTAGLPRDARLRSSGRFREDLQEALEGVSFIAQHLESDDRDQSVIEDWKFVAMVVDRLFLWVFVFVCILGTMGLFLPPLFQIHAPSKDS

One experiment addresses rat α3β4 nAChR (Rattus norvegicus, UniProt P04757+P12392). As to the kind of experiment: Calcium influx assay (dual agonist/antagonist, FLIPR calcium 6) in HEK293 cells expressing rat α3β4 nAChR. The class given is cell-based. The conditions noted are these: read-out: α3β4 nAChR IC50; Table 3.
The IC50 is the concentration that gives 50% inhibition. Consider `CC1=CCC2CC1C1NC(C)(C)c3ccccc2cc1o3` (centres unmarked), for which the IC50 was found to be 23.3 µM.
On the same count and under the same terms, next, `CC1=CCC2CC1C(c1cc(O)cc(O)c1)NC2(C)C` (single isomer, unassigned): over 100 µM; `CC1=CCC2CC1C(c1ccc(C(F)(F)F)cc1)NC2(C)C` (single isomer, unassigned): 0.79 µM; `CC1=CCC2CC1C(c1ccc(F)c(C(F)(F)F)c1)NC2(C)C` (single isomer, unassigned): 0.28 µM.
On the same count and under the same terms, for `CC1=CCC2CC1C(c1ccc(F)c(F)c1)NC2(C)C` (single isomer, unassigned) the value was 0.32 µM; for `CC1=CCC2CC1C(c1ccc(N(C)C)cc1)NC2(C)C` (single isomer, unassigned), 12 µM; for `CC1=CCC2CC1C(c1ccc([N+](=O)[O-])cc1)NC2(C)C` (single isomer, unassigned), 3.1 µM.
In the case of `CC1=CCC2CC1C(c1ccnc(F)c1)NC2(C)C` (single isomer, unassigned), the IC50 was over 100 µM.

The same experiment, now with this note: read-out: α3β4 nAChR IC50; Table 4; R1 and R2 methyl, R3 NH unless otherwise indicated.
On to `CC1=CCC2CC1C(c1cc(O)cc(O)c1)NC2(C)C` (single isomer, unassigned), for which the concentration for half-maximal inhibition (IC50) worked out at 102 µM.
On the same count and under the same terms, for `CC1=CCC2CC1C(c1ccc(N(C)C)cc1)NC2(C)C` (single isomer, unassigned) the value was 12 µM.
Still for that read-out and setting: for `CC1=CCC2CC1C(c1ccc([N+](=O)[O-])cc1)NC2(C)C` (single isomer, unassigned) the value was 3.14 µM.
